Reference: patent US6117976

Target: hen egg lysozyme (hen) (UniProt P00698)
Experiment: surface plasmon resonance (BIAcore), 2000 RUs lysozyme immobilised, supernatant injected

koff: 0.003 s⁻¹
Substance: scFv(D1.3)-calmodulin fusion protein
